From article PMC9369162, “Substrates of the Human Brain Proton-Organic Cation Antiporter and Comparison with Organic Cation Transporter 1 Activities” (International Journal of Molecular Sciences, 2022)

Target: T1, OCT1 (Homo sapiens, UniProt O15245)
T1 construct: expressed in transfected cells; host or cells: HEK293
T1 sequence (O15245 1-554): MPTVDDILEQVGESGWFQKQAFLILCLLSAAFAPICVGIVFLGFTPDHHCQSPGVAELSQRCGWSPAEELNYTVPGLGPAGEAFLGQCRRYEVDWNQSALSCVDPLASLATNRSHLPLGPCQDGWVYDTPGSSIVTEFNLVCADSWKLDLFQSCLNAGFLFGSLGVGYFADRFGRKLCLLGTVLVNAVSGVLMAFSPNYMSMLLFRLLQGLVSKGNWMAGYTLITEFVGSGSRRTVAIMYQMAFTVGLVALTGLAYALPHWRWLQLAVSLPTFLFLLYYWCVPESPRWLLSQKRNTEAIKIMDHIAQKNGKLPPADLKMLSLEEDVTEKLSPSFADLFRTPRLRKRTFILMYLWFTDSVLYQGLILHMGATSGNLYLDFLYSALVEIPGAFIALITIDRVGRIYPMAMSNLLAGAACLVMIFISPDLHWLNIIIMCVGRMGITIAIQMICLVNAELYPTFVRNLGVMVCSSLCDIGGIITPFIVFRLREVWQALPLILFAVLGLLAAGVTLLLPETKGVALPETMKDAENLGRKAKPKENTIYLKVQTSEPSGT
Assay: Cell uptake in OCT1 overexpressing HEK293 cells over empty-vector transfected cells
Type: cell-based

Row | SMILES | OCT1 Ratio
1 | CNCCC(Oc1ccc(C(F)(F)F)cc1)c1ccccc1 (centres unmarked) [Fluoxetine] | 1.10
2 | CC(CCc1ccccc1)NCC(O)c1ccc(O)c(C(N)=O)c1 (centres unmarked) [Labetalol] | 1.00
